One may read the Ki as a dissociation constant, usually derived from enzyme kinetics or from competition with a known ligand.

Chains of the proteins cited; added tags and fusions are not shown. Lines headed by an entry give the natural chain unless they say otherwise; changes in a name come on top.
UniProt P28221: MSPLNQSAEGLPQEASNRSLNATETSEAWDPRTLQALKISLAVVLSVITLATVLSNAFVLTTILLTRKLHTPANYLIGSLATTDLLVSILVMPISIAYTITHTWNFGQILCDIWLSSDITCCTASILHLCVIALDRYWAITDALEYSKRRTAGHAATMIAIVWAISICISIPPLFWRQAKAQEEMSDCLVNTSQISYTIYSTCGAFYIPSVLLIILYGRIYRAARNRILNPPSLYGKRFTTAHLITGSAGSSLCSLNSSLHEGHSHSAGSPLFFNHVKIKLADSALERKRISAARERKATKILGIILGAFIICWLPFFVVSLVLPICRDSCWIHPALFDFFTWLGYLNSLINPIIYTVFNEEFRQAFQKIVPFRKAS
UniProt P28566: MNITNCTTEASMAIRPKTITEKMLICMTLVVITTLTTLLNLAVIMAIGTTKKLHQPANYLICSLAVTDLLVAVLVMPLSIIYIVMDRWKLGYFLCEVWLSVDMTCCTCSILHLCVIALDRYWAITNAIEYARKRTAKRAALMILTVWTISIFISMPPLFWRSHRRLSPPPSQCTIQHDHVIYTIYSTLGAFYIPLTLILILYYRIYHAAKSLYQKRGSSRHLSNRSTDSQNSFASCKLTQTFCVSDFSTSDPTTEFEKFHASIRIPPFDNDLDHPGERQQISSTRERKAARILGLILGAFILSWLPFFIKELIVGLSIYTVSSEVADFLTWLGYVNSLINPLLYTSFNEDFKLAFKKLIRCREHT

A value given as a limit tells only on which side of the number the result lay.

The source of these data is ChEMBL document CHEMBL3217546, “The synthesis and receptor binding affinities of DDD-016, a novel, potential, atypical antipsychotic” (Medchemcomm, 2012).

In assay [1] the target is 5-hydroxytryptamine receptor 1D (Homo sapiens, UniProt P28221).
Assay [2] deals with 5-hydroxytryptamine receptor 1E (Homo sapiens, UniProt P28566).

In assay [1], `OCCOCCN1CCN(C2=Nc3ccccc3Sc3ccccc32)CC1` [QUETIAPINE] registered an inhibition constant (Ki) above 1000 nM.
With `Cc1nc2n(c(=O)c1CCN1CCC(c3noc4cc(F)ccc34)CC1)CCCC2` [RISPERIDONE], the inhibition constant Ki in assay [2] is above 1000 nM.
